Earlier results as cited in patent US20020160991A1.

Row | Substance | solubility in water
1 | triacetyl-beta-cyclodextrin | insoluble
2 | G-2-beta-cyclodextrin | 147 % soluble (w/v)
